## Binding of CDR-mutated scFvs to a peptide of the spike HR2 region

Antigen: PDVDLGDISGINAS, a 14-residue peptide of the SARS-CoV-2 spike HR2 region.

Ab-14 is the parent antibody, in scFv form: VH, then a 15-residue (Gly4Ser)3 linker, then VL. The heavy chain is unchanged in all variants.
VH: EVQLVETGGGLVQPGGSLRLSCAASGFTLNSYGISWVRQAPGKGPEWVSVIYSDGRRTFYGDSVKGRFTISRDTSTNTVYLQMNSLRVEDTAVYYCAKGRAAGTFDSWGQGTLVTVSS
VL: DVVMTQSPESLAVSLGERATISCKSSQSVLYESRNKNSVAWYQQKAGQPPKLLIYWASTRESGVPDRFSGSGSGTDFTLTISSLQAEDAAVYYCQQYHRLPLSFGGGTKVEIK

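The parent was found by panning a naive human phage display library on the peptide. Variants in AAYL50 differ from the parent at up to three CDR positions; double and triple changes were sampled at random. The scFvs were displayed on barcoded MATa yeast, the peptide on MATalpha yeast. The frequency of each diploid, read from paired DNA barcodes, reflects how well the two displayed proteins bind. Scores were corrected for input abundance and mapped to Kd with protein pairs of known affinity run in the same pool. There are three technical replicates.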

The parent's light chain CDRs are KSSQSVLYESRNKNSVA, WASTRES, QQYHRLPLS; each variant's own CDRs replace them letter for letter. This list gathers variants with a substitution at L102 (VL, numbered from residue 1). Each Kd is an estimate from the mating assay, the geometric mean of the replicates in which the pair was seen; lower is stronger. "nd" marks a missing value. The strain was present, yet no cells mated with the target were sequenced in any replicate, which points to weak or no binding. Order: sorted from the lowest average up, undetected variants last. As a blank, each scFv also met three strains without target: over library AAYL50, 18% of these pairings were detected, typically at 15 µM and seldom below 970 nM. For reference, the parent read 4.4 nM as the reference entry and 48 nM as a member of this library.

The variant KSSQSVLYESRNKNSVA, HASTRES, QQYHRLPCE showed 3.7 nM (3 of 3 replicates).
The variant KSSQSVLVSSRNKNSVA, WASTRES, QQYHRLPDS showed 5.5 nM (3 of 3 replicates).
The variant KSSQSVLYESRNKNSVA, WASTRES, QQYHRKPIS showed 6.8 nM (3 of 3 replicates).
The variant KSSQSVLYESRNKNSVA, HAHTRES, QQYHRLPSS showed 9.7 nM (3 of 3 replicates).
The variant KSSQSVLYESRNKNSVA, WASTREV, QQYHRLSGS showed 13 nM (3 of 3 replicates).
The variant KSSQSVLYESRNKNSVA, WMSTRVS, QQYHRLPES showed 52 nM (3 of 3 replicates).
The variant KSSQSVLYESRNKNSVA, WASTRES, QQNHRLPGP showed 57 nM (3 of 3 replicates).
The variant KSSQSVLQESRNKNSVA, WASTRES, QQYQRLPVS showed 140 nM (3 of 3 replicates).
The variant HSSYSVLYESRNKNSVA, WASTRES, QQYHRLPWS showed 840 nM (3 of 3 replicates).
The variant KSSQSVLYESRNMNSVA, WASTRES, QQYHKLPVS showed 940 nM (3 of 3 replicates).
The variant ASSQSVLYESRTKNSVA, WASTRES, QQYHRLPTS showed 1.4 µM (3 of 3 replicates).
The variant KSSQSVLYESRNKNSVA, WESTRES, QQYHKLPHS showed 2.0 µM (1 of 3 replicates).
The variant KSSQSCLYESRNKNSVA, WASTREA, QQYHRLPCS showed 3.3 µM (1 of 3 replicates).
The variant KSSQSVWYESRNKNSVA, WASTRES, WQYHRLPVS showed 5.3 µM (1 of 3 replicates).
The variant KSSQSVLYESRNKNSVA, GASTRES, QQYERLPPS showed 6.3 µM (2 of 3 replicates).
The variant KSSQSVLYESRNKNSVA, WDSTRES, QCYHRLPRS showed 8.2 µM (2 of 3 replicates).
The variant KSSQSVLYESRNQASVA, WASTRES, QQYHRLPCS showed 9.4 µM (1 of 3 replicates).
The variant KSSQSVLYESRNKNSVA, WAHTRES, QQYHYLPVS showed 36 µM (1 of 3 replicates).
The variant KSSQSVLYESRNKNSVA, WASTRES, QQYHRHPKS showed 95 µM (1 of 3 replicates).
The variant KSSQSVLYESRNKNSVM, WASTRES, QQYHRLPIS showed 180 µM (1 of 3 replicates).
The variant KSSQSVLYESRNKNSVA, WFSTRES, QQYHRLQWS showed 190 µM (1 of 3 replicates).
The variant KSSQWVLYESRGKNSVA, WASTRES, QQYHRLPHS showed 460 µM (1 of 3 replicates).
The variant KSSFSVLYESRNKQSVA, WASTRES, QQYHRLPES showed nd (0 of 3 replicates).
The variant KSSQSVLYEARNKNSVM, WASTRES, QQYHRLPHS showed nd (0 of 3 replicates).
The variant KSSQSVLYESRNKNGVA, WASTRES, QQYHRLPRL showed nd (0 of 3 replicates).
The variant KSSQSVLKESRNKNSVA, WASTRES, QVYHRLPAS showed nd (0 of 3 replicates).
The variant KSSQSVLFESRNKNSCA, WASTRES, QQYHRLPNS showed nd (0 of 3 replicates).
The variant KSVQSVLYESRNKNSVA, WASTRES, QSYHRLPQS showed nd (0 of 3 replicates).
The variant KSSQSVLYEMRNKNSVA, WAQTRES, QQYHRLPGS showed nd (0 of 3 replicates).
The variant KSSQSVLYESRNKNSVA, IASTRES, VQYHRLPDS showed nd (0 of 3 replicates).

Picked from the list: the 2 lowest averages where every replicate gave a value.

With KSSQSVLYESRNKNSVA, HASTRES, QQYHRLPCE the result was 3.7 nM (3 of 3 replicates).
With KSSQSVLVSSRNKNSVA, WASTRES, QQYHRLPDS the result was 5.5 nM (3 of 3 replicates).

Data: MIT Lincoln Laboratory AlphaSeq set, Engelhart et al. 2022, doi:10.1038/s41597-022-01779-4, as distributed in FLAb.